# In PubChem BioAssay AID485298 (National Center for Advancing Translational Sciences (NCATS), 2010):
# The list shows a part of the results, in another mix than the full data. The source made the active and inactive calls. The call rests on the fitted dose curve; in most records, active means well fitted activation curve with a large enough effect; inconclusive means small, poorly fitted or top-dose-only effect; inactive means no such curve, though single readings can be large or run the other way.
# Experiment: qHTS Assay for Small Molecule Inhibitors of Mitochondrial Division or Activators of Mitochondrial Fusion;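 further: temperature-sensitive fusion mutants such as fzo1-1 at 37 °C on non-fermentable ethanol glycerol medium; % of control where 0% means no effect; nearly all actives have a fitted effect of over 45% in size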
# Conditions: S. cerevisiae fusion-defective mutant growth rescue, CellTiterGlo 48 h; at 46.1 µM (top of the series)
# Method in brief: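 Yeast fusion mutant, YPEG (non-fermentable carbon), compound, 48 h at 37C non-permissive; CellTiterGlo added, 10 min RT, luminescence read. Rescued growth = division inhibition.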
row,Structure (SMILES),growth rescue (activation)
1,COc1ccc(OP(C)(=O)Nc2ccc(SC(F)(F)F)cc2)cc1 (centres undefined),inactive: 22.7%
2,O=C(OCCN1CCN(CCOCc2ccccc2)CC1)C(O)(c1ccccc1)c1ccccc1,inactive: -1.16%
3,CC(C)c1ccc(OP(C)(=O)Nc2ccc(SC(F)(F)F)cc2)cc1 (centres undefined),inactive: 2.81%
4,CP(=O)(Nc1ccccc1F)Oc1ccccc1 (centres undefined),inactive: 0.0837%
5,Cc1ccccc1NP(C)(=O)Nc1ccccc1C,inactive: 0.583%
6,CP(=O)(Nc1ccc2c(c1)OCCO2)Oc1ccccc1 (centres undefined),inactive: 3.04%
7,CCOP(C)(=S)SCC(=O)NC(C)(CC)C(=O)O (centres undefined),inactive: -4.38%
8,CP(=O)(Nc1ccc(SC(F)(F)F)cc1)Oc1ccc(F)cc1 (centres undefined),inactive: 8.47%
9,Cc1cc(-c2cccc3ccccc23)c(C)cn1.O=[N+]([O-])c1cc([N+](=O)[O-])c(O)c([N+](=O)[O-])c1,inactive: -0.231%
10,O=[N+]([O-])c1ccc(OP2(=O)COCCO2)cc1 (centres undefined),inactive: -0.0091%
11,COc1ccc(NP(C)(=O)Oc2ccccc2OC)cc1 (centres undefined),inactive: -4.51%
12,CN(C)CCOC(=O)C(O)(c1ccccc1)C1CCCCC1 (centres undefined),inactive: -4.22%
13,COc1ccc(OP(C)(=O)Nc2cccc(Br)c2)cc1 (centres undefined),inactive: 0.984%
14,CP(=O)(Nc1ccc(SC(F)(F)F)cc1)Oc1ccccc1 (centres undefined),inactive: 14.2%
15,CN1CCCCC1COC(=O)C1(O)c2ccccc2CCc2ccccc21 (centres undefined),inactive: -8.11%
16,COc1ccccc1OP(C)(=O)Nc1c(C)cccc1C (centres undefined),inactive: -1.53%
17,O=[N+]([O-])c1cc([N+](=O)[O-])c(Nc2nnnn2CCO)c([N+](=O)[O-])c1,inactive: 17.2%
18,CC1=C2N=C(C=C3N=C(C(C)=C4[N-][C@@](C)([C@@H]5N=C1[C@](C)(CCC(=O)NC[C@@H](C)OP(=O)([O-])O[C@H]1[C@@H](O)[C@@H](n6cnc7cc(C)c(C)cc76)O[C@@H]1CO)[C@H]5CC(N)=O)[C@@](C)(CC(N)=O)[C@@H]4CCC(N)=O)[C@@](C)(CC(N)=O)[C@@H]3CCC(N)=O)C(C)(C)[C@@H]2CCC(N)=O.[C-]#N.[Co+3],inactive: -19.3%
19,Cc1nc2ccc3ccccc3c2s1.O=[N+]([O-])c1cc([N+](=O)[O-])c(O)c([N+](=O)[O-])c1,inactive: 1.88%
20,O=[N+]([O-])c1cc([N+](=O)[O-])c(-n2nnc3ccccc32)c([N+](=O)[O-])c1,inactive: 2.9%
21,CP(=O)(Nc1cccc(Br)c1)Oc1ccccc1 (centres undefined),inactive: 11.6%
22,Cc1cc(C)cc(OP(C)(=O)Nc2ccccn2)c1 (centres undefined),inactive: -1.61%
23,Cc1ccc(C)c(NP(C)(=O)Oc2ccccc2)c1 (centres undefined),inactive: -2.08%
24,Cc1cc(C)cc(OP(C)(=O)Nc2ccc(C)cc2C)c1 (centres undefined),inactive: 3.1%
25,CCOC(=O)c1ccc(NP(C)(=O)Oc2cc(C)cc(C)c2)cc1 (centres undefined),inactive: -1.98%

row,Structure (SMILES),growth rescue (activation)
1,COc1ccccc1OP(C)(=O)Nc1cccc(Br)c1 (centres undefined),inactive: -0.362%
2,CC1=NCCc2c1[nH]c1ccccc21.O=[N+]([O-])c1cc([N+](=O)[O-])c(O)c([N+](=O)[O-])c1,inactive: 2.45%
3,COc1ccc(OP(C)(=O)Nc2cccc(F)c2)cc1 (centres undefined),inactive: 0.855%
4,COc1ccccc1OP(C)(=O)Nc1cc(Cl)ccc1C (centres undefined),inactive: 2.59%
5,Cc1cc(C)cc(OP(C)(N)=O)c1 (centres undefined),inactive: 6.83%
6,CCOC(=O)c1ccc(NP(C)(=O)Oc2ccccc2)cc1 (centres undefined),inactive: 1.05%
7,Cc1ccc(NP(C)(=O)Oc2ccccc2)c(C)c1 (centres undefined),inactive: 11.1%
8,COc1ccccc1OP(C)(=O)Nc1ccc(C)cc1 (centres undefined),inactive: 0.4%
9,Cc1cccc(C)c1OP(C)(N)=O (centres undefined),inactive: 24.4%
10,CC(C)(C)c1ccc(OP(C)(=O)Nc2ccc(SC(F)(F)F)cc2)cc1 (centres undefined),inactive: -22.9%
11,O=[N+]([O-])c1ccc2c(c1)C=Nc1ccccc1O2,inactive: -2.4%
12,O=[N+]([O-])c1cc([N+](=O)[O-])c(Nc2cccnc2)c([N+](=O)[O-])c1,inactive: -2.1%
13,CCN(CC)CCCOC(=O)C(O)(c1ccccc1)c1ccccc1,inactive: -3.5%
14,CP(=O)(Nc1ccccn1)Oc1ccc(Cl)cc1 (centres undefined),inactive: -0.752%
15,CCOP(C)(=S)SCC(=O)NC(C)C(=O)O (centres undefined),inactive: 3.93%
16,CCOC(=O)c1ccc(NP(C)(=O)Oc2ccc(OC)cc2)cc1 (centres undefined),inactive: -9.86%
17,Cc1cc(C)cc(OP(C)(=O)Nc2ccc(SC(F)(F)F)cc2)c1 (centres undefined),inactive: 0.227%
18,CCc1ccc(OP(C)(=O)N2CCN(c3ccc([N+](=O)[O-])cc3)CC2)cc1 (centres undefined),inactive: 6.64%
19,CP(=O)(NC(=O)Nc1ccccc1)Oc1ccccc1 (centres undefined),inactive: 1.23%
20,CP(=O)(Oc1ccccc1)OC(c1ccccc1)C(F)(F)F (centres undefined),inactive: 3.67%
21,CP(=O)(Nc1ccc(SC(F)(F)F)cc1)Oc1ccc(Cl)cc1 (centres undefined),inactive: 17%
22,COc1ccccc1OP(C)(=O)Nc1ccccc1 (centres undefined),inactive: 1.85%
23,CP(=O)(Nc1ccccc1Br)Oc1ccccc1 (centres undefined),inactive: 4.01%
24,CP(=S)(Nn1cnnc1)Oc1ccccc1 (centres undefined),inactive: -0.153%
